## Yeast mating assay B: variants of the scFv Ab-14

Reference: Li et al. 2023, doi:10.1038/s41467-023-39022-2. File: FLAb, binding data.

Target peptide (SARS-CoV-2 spike, HR2 region): PDVDLGDISGINAS

Parent scFv Ab-14: VH joined to VL by the linker GGGGSGGGGSGGGGS. Changes lie in the light chain CDRs alone.
VH: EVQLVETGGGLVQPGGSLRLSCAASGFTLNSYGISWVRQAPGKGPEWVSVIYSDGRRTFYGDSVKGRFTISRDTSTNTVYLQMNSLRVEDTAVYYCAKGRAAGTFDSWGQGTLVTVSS
VL: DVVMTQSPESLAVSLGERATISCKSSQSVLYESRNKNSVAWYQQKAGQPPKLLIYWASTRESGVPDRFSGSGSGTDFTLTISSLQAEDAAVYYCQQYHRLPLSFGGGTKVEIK

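The starting antibody came from a phage panning campaign against this peptide. The variants were designed computationally from a first round of random CDR variants and then made and measured. Their group label is 14L_En_Gen (En: ensemble of fine-tuned language models; Gen: genetic algorithm). The assay is AlphaSeq: two haploid yeast populations carry antibody and antigen on their surface. The frequency of each diploid, read from paired DNA barcodes, reflects how well the two displayed proteins bind. Each replicate has its own calibration line, from reference interactions of the BCL2 family. Each pool was mated in six replicate cultures.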

The parent's light chain CDRs are KSSQSVLYESRNKNSVA, WASTRES, QQYHRLPLS; each variant's own CDRs replace them letter for letter.
The read-out is the apparent dissociation constant on a log10 scale (nM): the lower, the stronger.
Where no diploid with the target was found in that replicate, the entry reads "nd": below detection, most likely a poor binder, though not proof of it.
The range of this assay differs from that of the first round, and the authors advise against merging the two.
The authors averaged sequences with at least three values out of six and counted those with two or fewer as poor binders.
The parent sequence was in this pool as ten entries: three were never detected, three once, and four in most replicates, with averages from 0.34 to 2.37.
Empty control strains, which show no peptide, gave a signal in 4% of pairings with all light chain designs; the median was 2.64 and 95% of these signals were weaker than 1.59. No background was subtracted. For each scFv, signals with the empty controls are counted beside the result.

The variant KLSEFMRGLMLRKDSIA | DNNTRGS | QQYDRLPLS gave 1.59, 1.96, 1.43, 1.25, 1.77, 2.46 (controls 1 of 18).
The variant KLSMITGHLSTAKNNVA | EMETREN | QQYNRLPLA gave nd, nd, nd, nd, nd, nd (controls 0 of 18).
The variant HITMGMYVHGRHHSSIA | QAETRAK | QQYDRLPLM gave 2.53, 2.00, nd, 2.56, 2.39, 1.96 (controls 0 of 18).
The variant TISSIMNHLTRNSNNVA | NMDMREE | QQYDRLPLS gave -0.08, -0.25, -0.30, -0.27, -0.27, 0.00 (controls 0 of 18).
The variant KIGMTLNQLMHKKNNVA | DLVMRAN | QQYFRLPLS gave 0.18, 0.55, 1.30, 0.78, 0.47, 0.50 (controls 0 of 18).
The variant MMSQVTGMESRHRNNVA | QTSTRES | QQYDRLPLI gave 0.91, 0.88, 0.79, 0.52, 0.73, 1.07 (controls 1 of 18).
The variant MISQLINMGYFAINSVA | QAETRCN | QQYDRLPLE gave nd, nd, nd, nd, nd, nd (controls 0 of 18).
The variant TISQITSLFSQTINNVA | EVSTREP | QQYDRLPLS gave 1.05, 1.45, 1.36, 1.37, 1.39, 1.89 (controls 1 of 18).
The variant KLTMITGTEKVHGNNVA | EMETRER | QQYNRLPLA gave 0.34, 0.32, 0.12, -0.09, 0.09, 0.05 (controls 0 of 18).
The variant MLSGVLHMLGAKKNSIA | DLVLRAN | QQYHRLPLS gave 2.63, nd, nd, nd, 3.79, 2.45 (controls 0 of 18).
The variant HMSMLTLGGLKNRNSVA | QMTTREN | QQYDHLPLS gave 0.64, 0.31, 0.26, 0.14, 0.22, 0.42 (controls 3 of 18).
The variant MVTQMAMTGMMSKRSVA | NAETRED | QQYHRLPLI gave 0.90, 0.50, 0.42, 0.25, 0.91, 0.79 (controls 0 of 18).
The variant MVNGIMDHLSKHTNNVA | ETTTREK | QQYDRLPLS gave 0.85, 0.72, 0.63, 0.53, 0.73, 0.78 (controls 2 of 18).
The variant KIGMTLNQLMKKKNNVA | DLVEREN | QQYFRLPLS gave 0.80, 0.59, 0.18, 0.38, 0.07, 0.61 (controls 0 of 18).
The variant TISQLMNMGQFAISSVA | QASIRNE | QQYDRLPLI gave 1.60, 1.47, 1.88, 1.16, 2.13, 0.96 (controls 0 of 18).
The variant SISGFMKSLAAHANSVA | DMTNRED | QQYNRLPLS gave 0.09, 0.04, -0.05, -0.13, 0.02, 0.11 (controls 0 of 18).
The variant IVSQLMLWGHLAKNSIA | EAQTRLN | QQYDRLPLF gave nd, nd, nd, nd, nd, nd (controls 0 of 18).
The variant KLSMITGHMQTEKNNVA | EMVTRER | QQYNRLPLA gave 0.12, 0.31, 0.11, -0.08, -0.35, 0.20 (controls 0 of 18).
The variant MMSQVTGLGTRHRNNVA | QTSTRED | QQYDRLPLV gave 0.78, 0.79, 0.72, 1.26, 0.74, 0.88 (controls 1 of 18).
The variant TLYGLSMSMAKNKNNVA | EMSTREN | QQYDRLPLI gave 0.38, 0.11, 0.20, -0.03, 0.03, 0.51 (controls 3 of 18).
The variant TISQMTSLFSQSINNVA | EVSMREE | QQYDRLPLT gave 1.38, 2.70, nd, nd, nd, 1.64 (controls 0 of 18).
The variant TISQMTSLFSQKINNVA | EVSMREE | QQYDRLPLA gave 0.95, 0.36, 0.54, 0.31, 0.52, 1.01 (controls 0 of 18).
The variant KLYDMAAVTMNNIRNVA | DNDTREQ | QQYHRLPLS gave 1.02, 0.51, 0.82, 1.20, 0.60, 1.04 (controls 1 of 18).
The variant KIGMVLNTLLHQKNNVA | DLVTREN | QQYFRLPLS gave 0.77, 1.18, 0.63, 0.49, 0.62, 0.49 (controls 0 of 18).
The variant KLSMITGHMSTIKNNVA | EMETREE | QQYNRLPLA gave 0.96, 1.31, 0.81, 1.10, 0.70, 1.11 (controls 1 of 18).
The variant TLTGAMHTQMHNTNSVA | DLTTRGN | QQYHRLPLS gave 0.73, 0.53, 0.49, 0.29, 0.46, 0.57 (controls 0 of 18).
The variant MISQVTGLGQRQRNNVA | QTSMRET | QQYDRLPLI gave 0.85, 1.18, 1.28, 1.47, 0.92, 0.57 (controls 0 of 18).
The variant MISQVMNTLTRLGNNVA | DLAEREA | QQYFRLPLS gave nd, nd, nd, nd, 2.17, 2.30 (controls 0 of 18).
The variant TISELYNQALGTRNNVA | NNQTRED | QQYARLPLS gave nd, nd, nd, nd, nd, nd (controls 0 of 18).
The variant MISQVMNTLTRHGNNVA | DLQNRES | QQYFRLPLS gave 1.45, 0.98, 0.94, 1.25, 1.74, 1.31 (controls 1 of 18).
The variant KISMLSENQLKNRNSVA | ELVTRVN | QQYNRLPLS gave 0.46, 0.08, 0.23, 0.09, -0.18, 0.14 (controls 2 of 18).
The variant TISQVMNTLTRQGNNVA | DLQERES | QQYFRLPLS gave 0.87, 1.85, 0.64, 0.52, 1.47, 1.78 (controls 0 of 18).
The variant KLSQITGHLSTAKNNVA | EMVTREN | QQYNRLPLS gave 0.41, 0.13, 0.25, 0.23, 0.23, 0.43 (controls 1 of 18).
The variant KIGGTLNTLMHQKNNVA | DLVEREN | QQYHRLPLS gave 0.11, 0.18, 0.19, -0.10, -0.18, 0.34 (controls 0 of 18).
The variant KITATMRFEQKQSNNIA | EVTTRSK | QQYYRLPLA gave 1.13, 1.19, 0.90, 0.50, 0.89, 1.13 (controls 1 of 18).
The variant MVTQMAMQGMTNKRSVA | NAETREN | QQYHRLPLI gave 0.55, 0.76, 1.25, 1.03, 0.48, 0.67 (controls 0 of 18).
The variant MVSQLMVWGLHAKNSIA | EAQTRCN | QQYDRLPLF gave nd, 1.89, 2.18, nd, nd, nd (controls 0 of 18).
The variant HMSMLTLGGMRAHNSVA | QMTTREN | QQYDRLPLA gave 1.08, 0.81, 0.80, 0.88, 1.01, 0.94 (controls 0 of 18).
The variant MLGDVAQGLSRKEDSVA | DNSTRES | QQYDRLPLS gave 1.85, 2.21, nd, 5.03, 2.51, 3.49 (controls 2 of 18).
The variant MLSQMTGLGQKVRNSVA | QASMRFN | QQYHRLPLI gave nd, 2.64, 1.33, 1.77, 2.84, 2.00 (controls 1 of 18).
The variant MISQLYNFGTFAINSVA | QASTRME | QQYHRLPLM gave 1.16, 0.63, 0.55, 1.32, nd, 1.09 (controls 0 of 18).
The variant MVSQLMLWGLHAKNSIA | EAQTRLN | QQYDRLPLF gave nd, nd, nd, nd, nd, 1.16 (controls 0 of 18).
The variant MISQLYNMGSFAKNSVA | QASERNN | QQYDRLPLM gave 0.61, 0.50, 0.38, 0.38, 0.42, 0.71 (controls 2 of 18).
The variant HMSMLTLMGQRHVNSVA | QMTTREN | QQYDRLPLT gave 1.07, 0.82, 0.64, 0.73, 0.93, 0.99 (controls 0 of 18).
The variant KLSSVTGHMSMAKNNVA | EMETREN | QQYNRLPLS gave 2.07, 2.78, 1.25, 2.32, 1.92, nd (controls 0 of 18).
The variant KISQMQRVGSTHQNSIA | EEQTRAK | QQYHRLPLS gave 0.63, 0.71, 0.86, 0.66, 0.79, 0.71 (controls 1 of 18).